These results are taken from US20260062456A1 (ALPINE IMMUNE SCIENCES, published 2026).

B1: variant PD-L1 ECD-Fc K160M, R195G (Fc fusion, not shown: a dimerising Fc or GST)
chain: not shown
B2: variant PD-L1 ECD-Fc N45D, P198T (Fc fusion, not shown: a dimerising Fc or GST)
chain: not shown
B3: variant PD-L1 ECD-Fc N45D, V58D (Fc fusion, not shown: a dimerising Fc or GST)
chain: not shown
B4: variant PD-L1 ECD-Fc N45D, S131F (Fc fusion, not shown: a dimerising Fc or GST)
chain: not shown
B5: variant PD-L1 ECD-Fc N45D, P198S (Fc fusion, not shown: a dimerising Fc or GST)
chain: not shown
B6: variant PD-L1 ECD-Fc N45D (Fc fusion, not shown: a dimerising Fc or GST)
chain: not shown
B7: variant PD-L1 ECD-Fc N45D, R195G (Fc fusion, not shown: a dimerising Fc or GST)
chain: not shown
B8: variant PD-L1 ECD-Fc N45D, K144E (Fc fusion, not shown: a dimerising Fc or GST)
chain: not shown
B9: variant PD-L1 ECD-Fc V129D, R195S (Fc fusion, not shown: a dimerising Fc or GST)
chain: not shown
B10: variant PD-L1 ECD-Fc N45D, R195S (Fc fusion, not shown: a dimerising Fc or GST)
chain: not shown

The assay concerns the target human PD-1 stably expressed on Jurkat/IL-2 reporter cells (Jurkat/PD-1 cells) (human). Description: flow cytometry, Jurkat/PD-1 cells. In general terms: Flow cytometry measures light scatter and fluorescence of single cells or particles in a stream.
Turning to B1, the “Fold Increase over WT PD-L1 ECD-Fc” value was 0.8 fold and the “MFI at 20 nM conc.” value came to 3930 MFI.
On the same counts, the results for B2 are 24.4 fold and 122000 MFI.
In the same order, the values of B3 are 30.4 fold and 152000 MFI.
As to B4, the “Fold Increase over WT PD-L1 ECD-Fc” value is 24.5 fold and the “MFI at 20 nM conc.” value amounted to 122000 MFI.
On the same counts, the results for B5 are 23.5 fold and 117000 MFI.
In the same order, the values of B6 are 19.1 fold and 95600 MFI.
On the same counts, the results for B7 are 24.3 fold and 122000 MFI.
Take B8: the “Fold Increase over WT PD-L1 ECD-Fc” value is 19.9 fold and the “MFI at 20 nM conc.” value was determined as 99700 MFI.
With B9, the “Fold Increase over WT PD-L1 ECD-Fc” value came out at 1.5 fold and the “MFI at 20 nM conc.” value was found to be 7700 MFI.
In the same order, the values of B10 are 25.7 fold and 129000 MFI.
